Test results published in US20260060911A1, “ESTER OF TRIFAROTENE” (Actera Ingredients, Inc., priority 2023, published 2026).

Settings: 1% (1 gram in 99 grams) in caprylic/capric triglyceride, heated to 75° C. for ten minutes, cooled to room temperature

solubility / appearance of premix solution: homogeneous clear solution
Substance: trifarotene caprylate
